# The list shows a part of the results, in another mix than the full data. Activity calls are given as the source filed them.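 How the source made its calls: active means at least 40% inhibition at 20 µM here, with at most 30% in a related deaminase screen; inactive means the rest.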
# Protein sequences, listed by entry. Tags and fused reporters are not part of them.
# UniProt P31941, whole entry: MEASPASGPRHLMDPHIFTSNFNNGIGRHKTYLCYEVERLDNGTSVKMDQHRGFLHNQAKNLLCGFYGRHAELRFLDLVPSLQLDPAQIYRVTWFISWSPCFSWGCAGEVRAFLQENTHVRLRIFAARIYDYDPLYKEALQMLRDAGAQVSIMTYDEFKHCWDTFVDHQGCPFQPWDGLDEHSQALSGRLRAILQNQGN
# Target: DNA dC->dU-editing enzyme APOBEC-3A (Homo sapiens) (UniProt P31941)
# Test: blockers of A3A cytidine deamination on DNA – biochemical, FAM/TAMRA oligo cleavage fluorescence, selectivity assay for APOBEC3G inhibitor project, primary screen (AID 493011);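 further: plate controls were A3A with DMSO for no effect and wells lacking A3A enzyme for full effect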
# Details: recombinant A3A, FAM/TAMRA ssDNA deamination fluorescence; at 20 µM; stronger effect = higher value
row,SMILES,inhibition
1,CCC(=O)N(c1ccccc1)C1(COC)CCN(CCc2cccs2)CC1,inactive: -1.96%
2,CCC(=O)N(c1ccccc1)C1(COC)CCN(CCn2nnn(CC)c2=O)CC1,inactive: 2.55%
